Test results as given in patent US5154929A, “Percutaneous absorption type preparation and process for preparing the same” (Nitto Denko Corporation, priority 1988, dated 1992).

Assay: Saturated solubility of the drug in the pressure-sensitive adhesive
Settings: adhesive of Example 1 (2-ethylhexyl acrylate 97 parts, acrylic acid 3 parts)

With O=[N+]([O-])O[C@H]1CO[C@H]2[C@@H]1OC[C@H]2O[N+](=O)[O-] the “saturated solubility in the pressure-sensitive adhesive” value was “about 8 % by weight”.
